Calls of active or inactive are those of the source. No cut-off for these calls is given here.
Tests used:
Oryctolagus cuniculus = assay: Adjuvanticity activity in New Zealand white rabbit immunized with CRM197 on days 1, 15 and 28 assessed as final test-bleed measured on day 38 at 100 ug, im by ELISA relative to unadjuvanted control
[1] = biological target: T1, Toll-like receptor 8 (Homo sapiens) (UniProt Q9NR97); assay: Agonist activity at TLR8 in human PBMC assessed as induction of TNF-alpha after 12 hrs by cytokine/chemokine bead array assay
T1 sequence (whole entry): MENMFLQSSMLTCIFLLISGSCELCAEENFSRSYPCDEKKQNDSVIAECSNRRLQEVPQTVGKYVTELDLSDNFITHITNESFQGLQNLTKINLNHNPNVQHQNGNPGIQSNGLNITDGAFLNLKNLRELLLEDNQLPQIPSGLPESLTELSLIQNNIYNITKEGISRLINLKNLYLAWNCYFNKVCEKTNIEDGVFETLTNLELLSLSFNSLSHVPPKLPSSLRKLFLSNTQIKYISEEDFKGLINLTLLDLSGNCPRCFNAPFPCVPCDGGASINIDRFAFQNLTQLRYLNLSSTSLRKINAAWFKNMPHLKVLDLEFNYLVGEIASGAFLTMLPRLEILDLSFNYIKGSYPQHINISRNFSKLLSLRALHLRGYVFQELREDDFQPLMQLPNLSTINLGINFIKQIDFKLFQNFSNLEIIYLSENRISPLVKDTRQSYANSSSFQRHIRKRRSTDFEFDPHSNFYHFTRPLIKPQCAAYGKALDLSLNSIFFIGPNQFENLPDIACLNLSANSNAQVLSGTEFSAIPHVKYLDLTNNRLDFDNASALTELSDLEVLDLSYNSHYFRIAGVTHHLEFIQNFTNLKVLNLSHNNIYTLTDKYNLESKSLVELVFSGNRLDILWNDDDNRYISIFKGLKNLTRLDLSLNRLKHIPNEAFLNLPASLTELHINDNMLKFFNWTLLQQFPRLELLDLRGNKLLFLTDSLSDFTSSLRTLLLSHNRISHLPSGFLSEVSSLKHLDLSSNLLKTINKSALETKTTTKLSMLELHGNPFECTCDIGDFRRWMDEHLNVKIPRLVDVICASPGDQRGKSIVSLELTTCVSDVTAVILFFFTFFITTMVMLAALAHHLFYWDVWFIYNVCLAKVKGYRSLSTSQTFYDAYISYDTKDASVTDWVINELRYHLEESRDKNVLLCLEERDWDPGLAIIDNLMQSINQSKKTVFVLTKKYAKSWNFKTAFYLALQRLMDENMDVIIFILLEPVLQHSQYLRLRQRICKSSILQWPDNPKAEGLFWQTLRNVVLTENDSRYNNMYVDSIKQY

[2] = biological target: T1, Toll-like receptor 8 (Homo sapiens); assay: Agonist activity at TLR8 in human whole blood assessed as up regulation of CD40 in CD 14+ monocytes after 16 hrs by eight-color flow cytometry
[3] = biological target: T1, Toll-like receptor 8 (Homo sapiens); assay: Agonist activity at TLR8 in human PBMC assessed as induction of IFN-gamma after 12 hrs by cytokine/chemokine bead array assay
[4] = biological target: T1, Toll-like receptor 8 (Homo sapiens); assay: Agonist activity at TLR8 in human whole blood assessed as up regulation of CD80 in CD 14+ monocytes after 16 hrs by eight-color flow cytometry
[5] = biological target: T1, Toll-like receptor 8 (Homo sapiens); assay: Agonist activity at TLR8 in human PBMC assessed as induction of IL-12p40 after 12 hrs by cytokine/chemokine bead array assay
Toll-like receptor 8 = biological target: T2, Toll-like receptor 8 (Homo sapiens, UniProt Q9NR97)
T2 sequence (Q9NR97 whole entry): T1 sequence (whole entry)

Row | SMILES | Activity [2] | Activity (Oryctolagus cuniculus) | also measured
1 | CCCCc1cc2c(o1)c(N)nc1ccccc12 | – | Active | –
2 | CCCCc1nc2c(N)nc3ccccc3c2n1Cc1cccc(CN)c1 | – | – | EC50 (Toll-like receptor 8): 0.014 µM
3 | CCCCCc1cc2ccccc2nc1N | – | Active | –

Now from value to molecule, other results behind:

Row | Activity [2] | SMILES | Activity (Oryctolagus cuniculus) | also measured
4 | Active | CCCCCc1cc2c(CCCCCN)cccc2nc1N | Active | Activity [1]: Active; Activity [3]: Active; Activity [4]: Active; Activity [5]: Active
5 | Active | CCCCc1nc2c(N)nc3ccccc3c2n1Cc1ccc(CN)cc1 | – | –

From ChEMBL document CHEMBL3621148, “Structure-Based Design of Human TLR8-Specific Agonists with Augmented Potency and Adjuvanticity” (J Med Chem, 2015)
